Data taken from patent publication US9428783B2, “DNA encoding dipeptide-synthesizing enzyme (variants), bacterium belonging to the genus Escherichia, and methods for producing dipeptides using thereof” (Ajinomoto Co., Inc., priority 2012, dated 2016).

What was measured:
E. coli BW25113 = test: DP3 toxicity, growth on M9-salts agar; conditions: WT
[1] = tested on: crude proteins preparation of E. coli BW25113 (WT); test: Specific aspartic peptide-hydrolyzing (DP3-hydrolyzing) activity in vitro; assay type: biochemical; conditions: 5 mM DP3, 37° C.
Protocol: The reaction mixture contained:
24 μg of crude proteins preparation, […]

[2] = tested on: crude proteins preparation of E. coli 4Δ strain; test: as above; conditions: 5 mM DP3, 37° C.
[3] = tested on: crude proteins preparation of E. coli 6Δ strain; test: as above; conditions: 5 mM DP3, 37° C.
E. coli 5Δ strain = test: DP3 toxicity, growth on M9-salts agar
[4] = tested on: crude proteins preparation of E. coli 5Δ strain; test: Specific aspartic peptide-hydrolyzing (DP3-hydrolyzing) activity in vitro; conditions: 5 mM DP3, 37° C.
[5] = Preliminary analysis of substrate specificity by TLC; assay type: biochemical; conditions: 4 μg enzyme, 10 mM each amino acid, 10 mM ATP, pH 8.0, 32° C., 15 hours
Excerpt: The substrate specificity of BBR47_51900 and Staur_4851 was studied in the reaction mixture containing the enzyme and canonical L-amino acids such as L-alanine, L-arginine, L-asparagine, L-aspartic acid, L-cysteine, glycine, L-glutamic acid, L-glutamine, L-histidine, L-isoleucine, L-leucine, L-lysine, L-methionine, L-phenylalanine, L-proline, L-serine, L-threonine, L-tryptophan, L-tyrosine, and L-valine, or salts thereof, of the same or two different kinds. The composition of the reaction mixture of total volume of 50 μL was as follows unless otherwise noted:
Reactions were carried out at 32° C. for 15 hours. 1-2 μL of reaction mixture was subjected to thin layer chromatography (TLC) analysis using as mobile phase the mixture of 2-propanol:acetone:250 mM ammonia:H2O as 100:100:12:28. […] Detection was performed at 540 nm. The new spots on TLC-plates were detected after developing the reaction mixtures, which contained: […]

[6] = Enzymatic production of Asp-Phe using ATP regeneration system; assay type: biochemical; conditions: 0.15 U enzyme, 100 mM L-AspNa, 100 mM L-Phe, 37° C.
Protocol: The product yield of Asp-Phe was studied in the reaction mixture of BBR47_51900 and Staur_4851 containing phosphoenolpyruvate and pyruvate kinase for regeneration of ATP in order to prevent highly concentrated ATP from inhibiting the enzyme reaction. The composition of the reaction mixture of total volume of 1 ml was as follows.
Reactions were carried out at 37° C. for 1-48 hours. 100 μL out of the 1 mL reaction mixture was sampled at each reaction time. Each reaction mixture, into which 10 μL of 1 M EDTA (pH9.0) was added to stop the reaction, was subjected to HPLC analysis. The condition was as described in Example 4. As a result, BBR47_51900 and Staur_4851 could produce Asp-Phe in the ATP regeneration system (Table 9).

[7] = HPLC determination of dipeptides synthesized by the enzymes; assay type: biochemical; conditions: 160 μg enzyme, 10 mM substrates, 10 mM ATP, pH 9.0, 32° C., 15 hours
Protocol: Dipeptides synthesized by BBR47_51900 and Staur_4851 were determined using HPLC analysis of reaction mixtures of total volume of 400 μL, which contained:
Reactions were carried out at 32° C. for 15 hours. Then […] of reaction mixture was filtered through the Amicon Ultra-0.5 mL, 3K Centrifugal Filters (Millipore, #UFC500396) and subjected to HPLC analysis.
The conditions were as follows: • Equipment: HITACHI L-2000 series. • Column: Inertsil ODS-3 4.6×250 mm, […] (GL Sciences Inc.). • Temperature: 40° C. • Buffers:
A (for mixture L-Asp/L-Val and L-Glu/L-Val): 0.1 M KH2PO4 (pH 2.2)+5 mM octanesulfonate, sodium salt: CH3CN as 4:1 (v/v),
B (for mixture L-Asp/L-Phe): 0.1 M KH2PO4 (pH 2.2)+5 mM octanesulfonate, sodium salt: CH3CN as 7:3 (v/v),
C (for mixture L-Asp/L-PheOMe, L-Asp/L-Trp, and L-Val/L-Val): 0.1 M KH2PO4 (pH 2.2)+5 mM octanesulfonate, sodium salt:CH3CN as 3:2 (v/v),
D (for mixture L-Phe/L-Phe): 0.1 M KH2PO4 (pH 2.2)+5 mM octanesulfonate, sodium salt: CH3CN as 1:1 (v/v). • Gradient profile: isocratic. • Flow rate: 1.5 mL/min. • Injection volume: 10 μL. • Detection: UV 210 nm.
Solution of αGlu-Val, γGlu-Val, αAsp-Val (10 mM each) and αAsp-Phe, βAsp-Phe (5 mM each) were prepared for HPLC analysis. The concentration of a dipeptide formed was determined using corresponding calibration curves. Each solution with standard sample was diluted to 50-folds or 100-folds for LC-QTOF/MS/MS analysis (Example 5).

[8] = DP3 conc. 2 (mM), M9-salt/Glucose (0.4%, W/V)
[9] = DP3 conc. 2 (mM), M9-salt/Glycerol (0.4%, W/V)
[10] = DP3 conc. 4 (mM), M9-salt/Glucose (0.4%, W/V)
[11] = DP3 conc. 4 (mM), M9-salt/Glycerol (0.4%, W/V)
[12] = DP3 conc. 6 (mM), M9-salt/Glucose (0.4%, W/V)
[13] = DP3 conc. 6 (mM), M9-salt/Glycerol (0.4%, W/V)
[14] = DP3 conc. 10 (mM), M9-salt/Glucose (0.4%, W/V)
[15] = DP3 conc. 10 (mM), M9-salt/Glycerol (0.4%, W/V)
[16] = DP3 conc. 15 (mM), M9-salt/Glucose (0.4%, W/V)
[17] = DP3 conc. 15 (mM), M9-salt/Glycerol (0.4%, W/V)
[18] = DP3 conc. 20 (mM), M9-salt/Glucose (0.4%, W/V)
[19] = DP3 conc. 20 (mM), M9-salt/Glycerol (0.4%, W/V)
[20] = DP3 conc. 30 (mM), M9-salt/Glucose (0.4%, W/V)
[21] = DP3 conc. 30 (mM), M9-salt/Glycerol (0.4%, W/V)
[22] = DP3 conc. 50 (mM), M9-salt/Glucose (0.4%, W/V)
[23] = DP3 conc. 50 (mM), M9-salt/Glycerol (0.4%, W/V)

L-Asp-L-5-Fluorotryptophan [DP3]
level of growth (DP3 toxicity) (E. coli BW25113; [8]): ++ | level of growth (DP3 toxicity) (E. coli BW25113; [9]): ++ | level of growth (DP3 toxicity) (E. coli BW25113; [10]): + | level of growth (DP3 toxicity) (E. coli BW25113; [11]): + | level of growth (DP3 toxicity) (E. coli BW25113; [12]): +− | level of growth (DP3 toxicity) (E. coli BW25113; [13]): +− | level of growth (DP3 toxicity) (E. coli BW25113; [14]): − | level of growth (DP3 toxicity) (E. coli BW25113; [15]): − | level of growth (DP3 toxicity) (E. coli BW25113; [16]): − | level of growth (DP3 toxicity) (E. coli BW25113; [17]): − | level of growth (DP3 toxicity) (E. coli BW25113; [18]): − | level of growth (DP3 toxicity) (E. coli BW25113; [19]): − | level of growth (DP3 toxicity) (E. coli BW25113; [20]): − | level of growth (DP3 toxicity) (E. coli BW25113; [21]): − | level of growth (DP3 toxicity) (E. coli BW25113; [22]): − | level of growth (DP3 toxicity) (E. coli BW25113; [23]): − | specific aspartic peptide-hydrolyzing activity (A) ([1]; Mn^2+): 282.34 nmol/mg/min | specific aspartic peptide-hydrolyzing activity (A) ([1]; Zn^2+): 123.03 nmol/mg/min | specific aspartic peptide-hydrolyzing activity (A) ([1]; no cofactor): 110.48 nmol/mg/min | specific aspartic peptide-hydrolyzing activity (A) ([2]; Mn^2+): 13.26 nmol/mg/min | specific aspartic peptide-hydrolyzing activity (A) ([2]; Zn^2+): 6.38 nmol/mg/min | specific aspartic peptide-hydrolyzing activity (A) ([2]; no cofactor): 6.98 nmol/mg/min | specific aspartic peptide-hydrolyzing activity (A) ([3]; Mn^2+): 6.86 nmol/mg/min | specific aspartic peptide-hydrolyzing activity (A) ([3]; Zn^2+): 4.69 nmol/mg/min | specific aspartic peptide-hydrolyzing activity (A) ([3]; no cofactor): 6.07 nmol/mg/min | level of growth (DP3 toxicity) (E. coli 5Δ strain; [8]): ++ | level of growth (DP3 toxicity) (E. coli 5Δ strain; [9]): ++ | level of growth (DP3 toxicity) (E. coli 5Δ strain; [10]): ++ | level of growth (DP3 toxicity) (E. coli 5Δ strain; [11]): ++ | level of growth (DP3 toxicity) (E. coli 5Δ strain; [12]): ++ | level of growth (DP3 toxicity) (E. coli 5Δ strain; [13]): ++ | level of growth (DP3 toxicity) (E. coli 5Δ strain; [14]): ++ | level of growth (DP3 toxicity) (E. coli 5Δ strain; [15]): + | level of growth (DP3 toxicity) (E. coli 5Δ strain; [16]): ++ | level of growth (DP3 toxicity) (E. coli 5Δ strain; [17]): + | level of growth (DP3 toxicity) (E. coli 5Δ strain; [18]): ++ | level of growth (DP3 toxicity) (E. coli 5Δ strain; [19]): +− | level of growth (DP3 toxicity) (E. coli 5Δ strain; [20]): +− | level of growth (DP3 toxicity) (E. coli 5Δ strain; [21]): − | level of growth (DP3 toxicity) (E. coli 5Δ strain; [22]): − | level of growth (DP3 toxicity) (E. coli 5Δ strain; [23]): − | specific aspartic peptide-hydrolyzing activity (A) ([4]; Mn^2+): 14.14 nmol/mg/min | specific aspartic peptide-hydrolyzing activity (A) ([4]; Zn^2+): 5.63 nmol/mg/min | specific aspartic peptide-hydrolyzing activity (A) ([4]; no cofactor): 7.41 nmol/mg/min

B1: Staur_4851: L-amino acid α-ligase (argininosuccinate lyase 2-like protein) from Stigmatella aurantiaca DW4/3-1, SEQ ID NO: 4 (protein)
chain: MNQFVFVESNTTGTGRLAVERLLAQGEQVTFITHQPEKYPFLVGNKAPGLKVLKVETNDAAAVEACVDGLVREGKVAALLTFSTFYVPTVAAIAARHGLRYLQPRAAQACHNKHEARALLRAAGLPGPEFHVIASEAEAAQLAQTVRFPCVVKPPAESGSTGVRRVDTPEELLAHFRSLHSRAANERGQSLHGEVLVESFLEGPEFSVETMTLADGTTHVLGVTQKYLSAPPYFVEMGHDFPADLPPERRRALEEAVLAGLAAVGFDFGPAHTEIRFTPAGPVIIEINPRLAGGMIPELVRLSTGVDLLSAMLDQMLGRPVDLTHTRQDVACIRFITSERPGVLARVEGQDEASRLGTVRQVAVDKAAGTRLRPPESATDRLGYVIASGPERGQVLGDAARALSLLRVEQAAPSAPA
modifications: Stigmatella aurantiaca DW4/3-1
L-amino acid pairs giving new spots on TLC-plates (ligation) [5]: L-Asp/L-Phe, or L-Asp/L-Trp, or L-Asp/L-Thr | Asp-Phe ([6]; 1 hr): 10 mM | Asp-Phe ([6]; 2 hr): 20 mM | Asp-Phe ([6]; 4 hr): 33 mM | Asp-Phe ([6]; 8 hr): 49 mM | Asp-Phe ([6]; 24 hr): 56 mM | Asp-Phe ([6]; 48 hr): 56 mM | Dipeptides (mM) Asp-Phe [7]: 2.54 mM | Dipeptides (mM) Asp-PheOMe [7]: 0.02 mM | Dipeptides (mM) Asp-Trp [7]: 1.48 mM | Dipeptides (mM) Asp-Val [7]: 4.4 mM | Dipeptides (mM) Glu-Val [7]: 0.40 mM
